Assay results published in patent US5227488A, “Aza spiro decane and use thereof in treating CNS disorders” (Novo Nordisk A/S, priority 1989, dated 1993).

Amino acid sequences for entries named in this document (tags omitted).
UniProt P28564, whole entry: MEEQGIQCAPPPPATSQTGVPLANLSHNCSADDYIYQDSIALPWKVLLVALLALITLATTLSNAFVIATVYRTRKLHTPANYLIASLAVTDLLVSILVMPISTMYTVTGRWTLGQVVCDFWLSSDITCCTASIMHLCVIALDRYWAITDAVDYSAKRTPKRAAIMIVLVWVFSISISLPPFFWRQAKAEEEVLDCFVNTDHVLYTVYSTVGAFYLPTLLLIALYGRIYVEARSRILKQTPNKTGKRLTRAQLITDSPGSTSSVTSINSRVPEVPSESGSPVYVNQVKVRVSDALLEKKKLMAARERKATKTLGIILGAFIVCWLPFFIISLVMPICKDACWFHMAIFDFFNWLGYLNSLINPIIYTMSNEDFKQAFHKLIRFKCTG

Molecular target: T1, 5-HT1B (Rattus norvegicus, UniProt P28564)
T1 construct: from tissue; host or cells: rat brain: frontal cortex, hippocampus
Assay: Receptor binding in vitro, 5-HT1B (3H-5-HT displacement, with 50 nM 8-OH-DPAT)
Experimental: Compounds of the general formula (I) were tested for binding to 5-HT receptors and compared with known ligands by the following procedure:
Rat brain tissue (as specified in the table hereinafter) was homogenized using a Polytron homogenizer. The final pellet was resuspended in 125 vol (tissue wet weight) of buffer.
In all assays incubation was carried out for 10 min at 37° C.
Labelling of the 5-HT1B receptor was complicated by the fact that the available ligand ^3 H-5-HT is nonselective.
Detailed conditions for the receptor binding assay in vitro are tabulated below.

## CC1(C)CC(=O)N(CCCCN2CCN(c3ncccn3)CC2)C(=O)C1 [gepirone, reference compound]
  IC50: > 1000 nM
